Reference: PubChem BioAssay (NCI)
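Dose response: 5 concentrations. Exposure: 48 h. Format: 96-well plates. Endpoint: linear interpolation; highest concentration if not reached. GI50 = concentration required for 50% inhibition of growth. The concentration for full growth arrest is given as TGI.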

How the values were obtained:
Test in all cases: inhibition of tumour cell growth, NCI panel, 48 h
[1] = test system: SF-295 CNS
[2] = test system: SF-268 CNS
[3] = test system: HCT-15 colon
[4] = test system: LOX IMVI melanoma
[5] = test system: COLO 205 colon
[6] = test system: EKVX NSCLC
[7] = test system: SK-MEL-28 melanoma
[8] = test system: SW-620 colon
[9] = test system: HCT-116 colon
[10] = test system: NCI-H322M lung
[11] = test system: MDA-MB-231 breast
[12] = test system: MALME-3M melanoma
[13] = test system: SK-OV-3 ovarian
[14] = test system: K-562 leukemia
[15] = test system: UO-31 renal
[16] = test system: TK-10 renal
[17] = test system: UACC-62 melanoma
[18] = test system: PC-3 prostate
[19] = test system: NCI-H460 lung
[20] = test system: NCI/ADR-RES ovarian
[21] = test system: SNB-19 CNS
[22] = test system: SR leukemia
[23] = test system: 786-0 renal
[24] = test system: T-47D breast
[25] = test system: IGROV1 ovarian
[26] = test system: SK-MEL-2 melanoma
[27] = test system: DU-145 prostate
[28] = test system: BT-549 breast
[29] = test system: MOLT-4 leukemia
[30] = test system: NCI-H226 lung
[31] = test system: UACC-257 melanoma
[32] = test system: MDA-MB-435
[33] = test system: OVCAR-8 ovarian
[34] = test system: A549 NSCLC
[35] = test system: OVCAR-4 ovarian
[36] = test system: HCC-2998 colon
[37] = test system: KM12 colon
[38] = test system: M14 melanoma
[39] = test system: RPMI-8226 leukemia
[40] = test system: OVCAR-5 ovarian
[41] = test system: OVCAR-3 ovarian
[42] = test system: ACHN renal
[43] = test system: SF-539 CNS
[44] = test system: U251 CNS
[45] = test system: NCI-H23 lung
[46] = test system: CAKI-1 renal
[47] = test system: HT29 colon
[48] = test system: MCF7 breast

CCP1(=S)OC(C)CCN1C(C)C (stereo unspecified)
GI50 [1]: 28.9 µM | TGI [1]: 70.2 µM | GI50 [2]: 73.7 µM | TGI [2]: > 100 µM | GI50 [3]: 66.7 µM | TGI [3]: > 100 µM | GI50 [4]: 33.8 µM | TGI [4]: > 100 µM | GI50 [5]: 88.3 µM | TGI [5]: > 100 µM | GI50 [6]: 65.4 µM | TGI [6]: > 100 µM | GI50 [7]: 5.03 µM | TGI [7]: 18.6 µM | GI50 [8]: 12.7 µM | TGI [8]: 63.2 µM | GI50 [9]: 36.2 µM | TGI [9]: > 100 µM | GI50 [10]: > 100 µM | TGI [10]: > 100 µM | GI50 [11]: 76.8 µM | TGI [11]: > 100 µM | GI50 [12]: 59.9 µM | TGI [12]: > 100 µM | GI50 [13]: > 100 µM | TGI [13]: > 100 µM | GI50 [14]: 32.6 µM | TGI [14]: > 100 µM | GI50 [15]: 96.6 µM | TGI [15]: > 100 µM | GI50 [16]: 66.5 µM | TGI [16]: > 100 µM | GI50 [17]: 17.4 µM | TGI [17]: 42.2 µM | GI50 [18]: 28.4 µM | TGI [18]: > 100 µM | GI50 [19]: 65.1 µM | TGI [19]: > 100 µM | GI50 [20]: > 100 µM | TGI [20]: > 100 µM | GI50 [21]: 87 µM | TGI [21]: > 100 µM | GI50 [22]: 21.4 µM | TGI [22]: 49.4 µM | GI50 [23]: 62.6 µM | TGI [23]: > 100 µM | GI50 [24]: 23.4 µM | TGI [24]: 63.9 µM | GI50 [25]: > 100 µM | TGI [25]: > 100 µM | GI50 [26]: 25.9 µM | TGI [26]: 55.4 µM | GI50 [27]: 43.4 µM | TGI [27]: > 100 µM | GI50 [28]: > 100 µM | TGI [28]: > 100 µM | GI50 [29]: 18.8 µM | TGI [29]: 43.5 µM | GI50 [30]: > 100 µM | TGI [30]: > 100 µM | GI50 [31]: 23.1 µM | TGI [31]: > 100 µM | GI50 [32]: 42.1 µM | TGI [32]: > 100 µM | GI50 [33]: 89.6 µM | TGI [33]: > 100 µM | GI50 [34]: 37.2 µM | TGI [34]: > 100 µM | GI50 [35]: 77.9 µM | TGI [35]: > 100 µM | GI50 [36]: 33.5 µM | TGI [36]: > 100 µM | GI50 [37]: 30.7 µM | TGI [37]: > 100 µM | GI50 [38]: 61.4 µM | TGI [38]: > 100 µM | GI50 [39]: 30.6 µM | TGI [39]: 68.5 µM | GI50 [40]: 78.7 µM | TGI [40]: > 100 µM | GI50 [41]: 32.9 µM | TGI [41]: > 100 µM | GI50 [42]: 7.47 µM | TGI [42]: > 100 µM | GI50 [43]: > 100 µM | TGI [43]: > 100 µM | GI50 [44]: 43.7 µM | TGI [44]: > 100 µM | GI50 [45]: 80.9 µM | TGI [45]: > 100 µM | GI50 [46]: 64.6 µM | TGI [46]: > 100 µM | GI50 [47]: 40.9 µM | TGI [47]: > 100 µM | GI50 [48]: 22.9 µM | TGI [48]: 57.3 µM
